The assay has as its target Poly(ADP-ribose) glycohydrolase (Homo sapiens, UniProt Q86W56). The experiment in a line: Inhibition of human full length PARG using Bt-NAD ribosylated PARP1 substrate after 10 mins by TR-FRET assay. In general terms: Time-resolved FRET reads energy transfer from a long-lived donor to a nearby acceptor.

Sequences of proteins named here, by UniProt entry; tags and fusion partners are left off. A change or cut given only in a name is not applied to a line headed by its entry.
UniProt Q86W56: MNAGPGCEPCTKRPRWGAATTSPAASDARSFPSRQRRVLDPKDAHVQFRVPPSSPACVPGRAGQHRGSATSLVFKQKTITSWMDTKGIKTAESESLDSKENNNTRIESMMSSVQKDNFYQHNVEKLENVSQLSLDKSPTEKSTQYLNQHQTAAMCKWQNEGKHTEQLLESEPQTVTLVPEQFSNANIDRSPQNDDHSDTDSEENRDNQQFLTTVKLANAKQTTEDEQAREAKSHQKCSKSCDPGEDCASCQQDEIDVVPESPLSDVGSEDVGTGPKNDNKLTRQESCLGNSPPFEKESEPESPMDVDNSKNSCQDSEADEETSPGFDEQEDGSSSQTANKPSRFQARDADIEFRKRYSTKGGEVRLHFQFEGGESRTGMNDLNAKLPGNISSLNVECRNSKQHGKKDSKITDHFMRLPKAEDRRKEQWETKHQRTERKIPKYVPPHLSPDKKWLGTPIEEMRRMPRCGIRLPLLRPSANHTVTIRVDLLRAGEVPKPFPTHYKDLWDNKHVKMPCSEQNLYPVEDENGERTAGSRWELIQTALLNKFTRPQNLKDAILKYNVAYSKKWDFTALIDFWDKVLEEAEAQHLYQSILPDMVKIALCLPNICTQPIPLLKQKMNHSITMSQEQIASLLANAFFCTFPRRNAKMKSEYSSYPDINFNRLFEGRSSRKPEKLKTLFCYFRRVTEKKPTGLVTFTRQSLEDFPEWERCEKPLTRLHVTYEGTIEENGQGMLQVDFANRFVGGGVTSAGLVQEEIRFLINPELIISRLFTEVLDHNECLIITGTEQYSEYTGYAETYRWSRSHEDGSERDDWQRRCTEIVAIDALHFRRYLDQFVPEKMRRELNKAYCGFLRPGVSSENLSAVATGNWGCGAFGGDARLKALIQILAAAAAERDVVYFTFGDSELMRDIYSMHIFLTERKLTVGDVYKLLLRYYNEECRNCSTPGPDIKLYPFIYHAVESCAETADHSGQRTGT

In the case of `O=C(Nc1ccc(Oc2ccc3ccccc3c2)c(Cl)c1)c1cc(Cl)cc(Cl)c1O`, the EC50 (in general, the concentration giving half of the maximal effect) was more than 70000 nM.

`CCn1c(=O)n(Cc2cnn(C)c2)c(=O)c2cc(S(=O)(=O)NC3(C)CC3)ccc21` returned an EC50 of 170 nM.

The values above are taken from ChEMBL document CHEMBL4261639, “Cell-Active Small Molecule Inhibitors of the DNA-Damage Repair Enzyme Poly(ADP-ribose) Glycohydrolase (PARG): Discovery and Optimization of Orally Bioavailable Quinazolinedione Sulfonamides” (J Med Chem, 2018).
